The values below are quoted from earlier work in patent US20120083599A1 (UNIVERSITY OF NOTTINGHAM, priority 2009, published 2012).

The chains behind the UniProt entries cited, without tags or fusion partners. Residues count along the entry.
UniProt P02701, 25-152, species assumed: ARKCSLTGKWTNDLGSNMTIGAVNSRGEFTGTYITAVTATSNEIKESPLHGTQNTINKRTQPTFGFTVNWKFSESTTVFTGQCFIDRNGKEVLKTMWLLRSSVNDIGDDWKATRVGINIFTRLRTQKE

As usually defined, the Kd is the free concentration of one partner at which half of the binding sites on the other are occupied at equilibrium, for simple one-to-one binding.

The data set concerns the target avidin (Gallus gallus, UniProt P02701). As to conditions: literature values; cited from earlier work.

The structures appear in SMILES notation.

`N=C1N[C@H]2[C@H](CS[C@H]2CCCCC(=O)O)N1` [iminobiotin, Iminobiotin]: the equilibrium dissociation constant (Kd) was approximately 10 pM.
